Literature values in US11571373B2, “Skin care preparations for babies” (priority 2015, dated 2023).

Legend:
[1] = species and route not given

Tocopherol
LD50 (oral) (mouse) (mouse): > 25 mL/kg | Oral LD50 value (mouse) (mouse): 50,000 mg/kg | LD50 (dermal) (rat) (rat): > 3,000 mg/kg | The actual or estimated LD50 value [1]: 7000 mg/kg body weight
